In PubChem BioAssay AID504383 (The Scripps Research Institute Molecular Screening Center, 2011):
The list shows a part of the results, in another mix than the full data. The source made the active and inactive calls.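 The calls were made as follows: active = mean activation above the low control average plus 3 SD, as set in the primary screen (cut at about 12% in these data); inactive = the rest.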

Molecular target: Troponin I, cardiac muscle (Homo sapiens) + Troponin T, cardiac muscle (Homo sapiens) + Troponin C, slow skeletal and cardiac muscles (Homo sapiens) (UniProt P19429+P45379+P63316)
Test: cardiac RTF calcium sensitivity activators, confirmation, biochemical, IANBD-TnC fluorescence, triplicate (AID 504383);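 also: 0% = DMSO at 0.472 mM calcium and 100% = DMSO at 2.9 mM calcium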
Conditions: IANBD-labeled cardiac RTF, Ca2+ sensitivity fluorescence; at 7.2 µM; active compounds read high; scaled from EC20 to saturating calcium; tested at EC20 calcium, 0.472 mM
In short: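 Test system: labelled regulated thin filament protein complex. Dosing: single nominal compound dose of 7.2 µM. Benchmarks: EC20 and EC100 calcium wells. Read-out basis: fluorescence gain scaled between EC20 and EC100 calcium controls. Probe or stimulus: submaximal calcium at 0.472 mM (EC20). Technique: fluorescence. Times: 15 min compound exposure, 25 °C.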

Structure (SMILES)	activation
CN(C)C(=O)c1c([N+](=O)[O-])cc([N+](=O)[O-])cc1[N+](=O)[O-]	inactive: 6.49%
Cc1cccc(C)c1OP(C)(=O)Nc1ccc(SC(F)(F)F)cc1 (configuration not stated)	inactive: 4.33%
